This passage reports inhibition of viability of Hut102/6TG cells (CellTiter-Glo Luminescent Cell Viability Assay) and Kd results from patent US20260098097A1.

The chains behind the UniProt entries cited, without tags or fusion partners. Residues count along the entry.
UniProt P28908, 19-595: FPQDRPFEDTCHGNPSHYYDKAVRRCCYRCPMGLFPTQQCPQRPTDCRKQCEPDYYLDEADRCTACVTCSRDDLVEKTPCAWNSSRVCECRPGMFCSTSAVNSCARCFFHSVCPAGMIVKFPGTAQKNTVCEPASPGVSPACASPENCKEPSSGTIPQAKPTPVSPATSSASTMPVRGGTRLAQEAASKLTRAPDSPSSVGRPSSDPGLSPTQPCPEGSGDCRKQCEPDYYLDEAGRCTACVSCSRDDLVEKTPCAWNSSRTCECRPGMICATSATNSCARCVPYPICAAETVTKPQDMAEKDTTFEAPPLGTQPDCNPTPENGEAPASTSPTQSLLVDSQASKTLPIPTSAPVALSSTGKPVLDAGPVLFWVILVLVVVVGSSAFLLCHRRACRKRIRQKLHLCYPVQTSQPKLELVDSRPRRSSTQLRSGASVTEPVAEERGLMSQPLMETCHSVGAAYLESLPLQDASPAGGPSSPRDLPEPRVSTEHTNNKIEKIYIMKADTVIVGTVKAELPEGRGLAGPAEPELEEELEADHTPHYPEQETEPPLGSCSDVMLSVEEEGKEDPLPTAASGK

Experiment [1] concerns the target human CD30 on human CD25+CCR4+CD30+ Hut102/6TG cells (human) (UniProt P28908). The experiment is described as follows: cell-based or functional assay.
Experiment [2] shares this target. The experiment is described as follows: flow cytometry, Alexa Fluor 488-labeled binder on Hut102/6TG cells, saturation binding fit of MFI.

In the case of “anti-CD30 antibody-drug conjugate (brentuximab vedotin)”, the inhibition of viability of Hut102/6TG cells (CellTiter-Glo Luminescent Cell Viability Assay) in experiment [1] is 52.1 nM. This substance also had a Kd in experiment [2] of 2.22 nM.
